Experimental data published in paper PMC8556345 (Cell, 2021).

System: grpLight in ACx
Experiment: in vivo dual-color photometry of grpLight and TAMRA-GRP, diffusion in cortex
Set-up: species or system mouse
Outline: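 Dual-color fiber photometry of grpLight1.2 and TAMRA signal was recorded in auditory cortex. GRP and TAMRA-GRP (2 μl in total, 300 μM each) were infused through a cannula into visual cortex at 100 nl/min.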

## Val-Ser-Thr-Gly-Ala-Gly- Gly- Gly-Thr-Val-Leu-Ala-Lys-Met-Tyr-Pro-Arg-Gly-Ser-His-Trp-Ala-Val-Gly-His-Leu-Met-NH2 [GRP, gastrin-releasing peptide]
  diffusion in intact brain tissue: diffuses slowly
